# Earlier results, collected in patent publication US20220127682A1, “SELECTION AND TREATMENT OF CANCER WITH COMBINATION THERAPIES” (Massachusetts Institute of Technology, priority 2020, published 2022).
# Amino acid sequences for entries named in this document (tags omitted). A change or cut given only in a name is not applied to a line headed by its entry.
# UniProt Q9H4B4: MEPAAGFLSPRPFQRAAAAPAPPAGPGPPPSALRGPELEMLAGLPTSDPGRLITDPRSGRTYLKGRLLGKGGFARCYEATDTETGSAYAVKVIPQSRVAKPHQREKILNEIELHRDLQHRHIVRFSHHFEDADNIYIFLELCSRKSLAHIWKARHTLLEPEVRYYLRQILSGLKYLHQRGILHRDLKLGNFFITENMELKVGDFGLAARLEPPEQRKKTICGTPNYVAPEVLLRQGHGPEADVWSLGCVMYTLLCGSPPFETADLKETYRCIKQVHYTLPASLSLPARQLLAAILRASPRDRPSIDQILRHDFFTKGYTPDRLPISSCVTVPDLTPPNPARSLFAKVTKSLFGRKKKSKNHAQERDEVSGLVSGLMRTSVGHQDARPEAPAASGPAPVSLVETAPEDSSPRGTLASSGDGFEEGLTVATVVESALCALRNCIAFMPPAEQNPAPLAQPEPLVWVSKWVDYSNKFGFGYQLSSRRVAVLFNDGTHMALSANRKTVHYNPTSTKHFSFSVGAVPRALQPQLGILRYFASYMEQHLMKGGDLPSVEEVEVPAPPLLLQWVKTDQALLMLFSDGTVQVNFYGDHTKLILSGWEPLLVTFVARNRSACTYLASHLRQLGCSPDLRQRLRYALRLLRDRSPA
# UniProt Q9NYY3: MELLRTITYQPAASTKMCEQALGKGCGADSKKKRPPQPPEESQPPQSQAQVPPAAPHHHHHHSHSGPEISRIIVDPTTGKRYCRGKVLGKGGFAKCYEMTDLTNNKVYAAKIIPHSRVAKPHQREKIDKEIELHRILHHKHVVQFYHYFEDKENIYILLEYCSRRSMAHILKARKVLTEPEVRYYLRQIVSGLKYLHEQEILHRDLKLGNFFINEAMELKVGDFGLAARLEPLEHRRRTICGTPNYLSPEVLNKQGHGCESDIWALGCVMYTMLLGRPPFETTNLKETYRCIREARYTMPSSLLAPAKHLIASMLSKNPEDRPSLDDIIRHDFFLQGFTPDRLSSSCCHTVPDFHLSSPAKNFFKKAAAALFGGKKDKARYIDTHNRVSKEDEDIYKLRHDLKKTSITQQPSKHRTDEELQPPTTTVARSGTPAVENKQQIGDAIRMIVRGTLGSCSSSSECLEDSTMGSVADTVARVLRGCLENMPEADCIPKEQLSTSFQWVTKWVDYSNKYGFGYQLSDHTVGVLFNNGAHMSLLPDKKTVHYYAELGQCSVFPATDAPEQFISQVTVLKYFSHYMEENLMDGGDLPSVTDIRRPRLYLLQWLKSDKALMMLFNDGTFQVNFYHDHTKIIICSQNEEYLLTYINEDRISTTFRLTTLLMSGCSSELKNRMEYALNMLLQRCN
# Assays:
# [1] = biological target: Plk3 (Homo sapiens, UniProt Q9H4B4); settings: relative to PLK1; cited from earlier work
# [2] = biological target: Plk2 (Homo sapiens, UniProt Q9NYY3); settings: relative to PLK1; cited from earlier work
compound,measurement,setting,value
"CC[C@@H]1C(=O)N(C)c2cnc(Nc3ccc(C(=O)N[C@H]4CC[C@H](N5CCN(CC6CC6)CC5)CC4)cc3OC)nc2N1C(C)C [BI6727, volasertib]",selectivity against Plk3,[1],65 fold
same,selectivity against Plk2,[2],6 fold
